Amino acid sequences for entries named in this document (tags omitted). Residues count along the entry.
UniProt Q60805, 19-994: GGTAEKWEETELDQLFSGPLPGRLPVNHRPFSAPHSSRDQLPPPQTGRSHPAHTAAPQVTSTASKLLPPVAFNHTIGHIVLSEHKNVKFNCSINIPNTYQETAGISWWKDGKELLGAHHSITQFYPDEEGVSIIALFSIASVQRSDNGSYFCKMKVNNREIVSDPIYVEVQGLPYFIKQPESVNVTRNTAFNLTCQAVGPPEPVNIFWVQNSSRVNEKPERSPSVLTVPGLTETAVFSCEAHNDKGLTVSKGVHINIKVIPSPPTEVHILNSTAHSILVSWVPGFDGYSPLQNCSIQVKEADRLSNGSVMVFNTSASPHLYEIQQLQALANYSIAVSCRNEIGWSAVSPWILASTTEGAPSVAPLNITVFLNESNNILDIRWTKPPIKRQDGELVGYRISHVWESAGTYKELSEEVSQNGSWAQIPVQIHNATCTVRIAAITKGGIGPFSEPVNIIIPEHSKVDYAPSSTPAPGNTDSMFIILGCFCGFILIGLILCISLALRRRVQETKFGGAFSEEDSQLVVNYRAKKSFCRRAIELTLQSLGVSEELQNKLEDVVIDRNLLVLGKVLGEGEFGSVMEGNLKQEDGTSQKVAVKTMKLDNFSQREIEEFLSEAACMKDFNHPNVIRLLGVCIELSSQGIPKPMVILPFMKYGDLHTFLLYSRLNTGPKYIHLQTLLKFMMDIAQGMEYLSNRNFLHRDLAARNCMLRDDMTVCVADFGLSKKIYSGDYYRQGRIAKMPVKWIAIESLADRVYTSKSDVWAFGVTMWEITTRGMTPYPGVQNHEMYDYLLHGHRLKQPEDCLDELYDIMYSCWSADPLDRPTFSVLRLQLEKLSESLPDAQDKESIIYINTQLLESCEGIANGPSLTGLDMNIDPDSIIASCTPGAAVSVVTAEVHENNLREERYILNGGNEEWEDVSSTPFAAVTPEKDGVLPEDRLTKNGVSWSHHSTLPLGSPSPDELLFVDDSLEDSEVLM

According to patent US20170202847A1, “METHODS FOR THE TREATMENT OF TUMORS” (The University of North Carolina at Chapel Hill, priority 2014, published 2017):

Target: MER in mouse macrophages (Mus musculus, UniProt Q60805)
Conditions: in vitro

CCCCNc1ncc2c(-c3ccc(CN4CCN(C)CC4)cc3)cn([C@H]3CC[C@H](O)CC3)c2n1 [MRX6313]
phosphorylation of MER in mouse macrophages: inhibited phosphorylation of MER
survival of macrophages or MER-negative PyVmT tumor cells: did not affect survival
